# Test results published in ChEMBL document CHEMBL4828722, “The synthesis and bioactivity of pyrrolo[2,3-d]pyrimidine derivatives as tyrosine kinase inhibitors for NSCLC cells with EGFR mutations” (Eur J Med Chem, 2021).
# Calls of active or inactive are those of the source. No cut-off for these calls is given here.
# Tests used:
# [1] = tested on: Epidermal growth factor receptor (Homo sapiens), P00533 [UNDEFINED MUTATION]; assay: Inhibition of […] EGFR Del E746/A750 mutant (unknown origin) at 2 nM pretreated with substrate for 10 mins followed by ATP addition measured after 60 mins by mobility shift assay relative to control
# [2] = tested on: Epidermal growth factor receptor (Homo sapiens), P00533 [L858R]; assay: Inhibition of […] EGFR L858R mutant (unknown origin) at 2 nM pretreated with substrate for 10 mins followed by ATP addition measured after 60 mins by mobility shift assay relative to control
# [3] = tested on: Epidermal growth factor receptor (Homo sapiens), P00533 [T790M]; assay: Inhibition of […] EGFR T790M mutant (unknown origin) at 2 nM pretreated with substrate for 10 mins followed by ATP addition measured after 60 mins by mobility shift assay relative to control
# [4] = tested on: Epidermal growth factor receptor (Homo sapiens), P00533 [C797S]; assay: Inhibition of […] EGFR C797S mutant (unknown origin) at 2 nM pretreated with substrate for 10 mins followed by ATP addition measured after 60 mins by mobility shift assay relative to control
# [5] = target: T1, Epidermal growth factor receptor (Homo sapiens, UniProt P00533); assay: Inhibition of wild type EGFR phosphorylation at Tyr992 residue in human HBE cells up to 5 uM incubated for 2 hrs by immunoblotting analysis; type: cell-based; settings: dose microM <=5, time 2.0 hrs
# [6] = target: T1, Epidermal growth factor receptor; assay: Inhibition of wild type EGFR phosphorylation at Tyr1068 residue in human HBE cells up to 5 uM incubated for 2 hrs by immunoblotting analysis; type: cell-based; settings: dose microM <=5, time 2.0 hrs
# [7] = target: T1, Epidermal growth factor receptor; assay: Inhibition of […] EGFR phosphorylation at Tyr992 residue in human NCI-H1975 cells at 0.1 to 5 uM incubated for 2 hrs by immunoblotting analysis; type: cell-based; settings: dose 0.1-5 µM
# [8] = target: T1, Epidermal growth factor receptor; assay: Inhibition of […] EGFR phosphorylation at Tyr1068 residue in human NCI-H1975 cells at 0.1 to 5 uM incubated for 2 hrs by immunoblotting analysis; type: cell-based; settings: dose 0.1-5 µM
# [9] = target: T1, Epidermal growth factor receptor; assay: Inhibition of […] EGFR phosphorylation at Tyr992 residue in human HCC827 cells at 0.1 to 5 uM incubated for 2 hrs by immunoblotting analysis; type: cell-based; settings: dose 0.1-5 µM
# [10] = target: T1, Epidermal growth factor receptor; assay: Inhibition of […] EGFR phosphorylation at Tyr1068 residue in human HCC827 cells at 0.1 to 5 uM incubated for 2 hrs by immunoblotting analysis; type: cell-based; settings: dose 0.1-5 µM
smiles,measurement,setting,value
C=CC(=O)Nc1cccc(Oc2nc(Nc3ccc(N4CCN(C)CC4)c(F)c3)nc3[nH]ccc23)c1 [ABIVERTINIB],inhibition,[1],45%
same,inhibition,[2],36%
same,inhibition,[3],94%
same,inhibition,[4],5.3%
same,inhibition,[5],inactive
same,inhibition,[6],inactive
same,inhibition,[7],Active
same,inhibition,[8],Active
same,inhibition,[9],Active
same,inhibition,[10],Active
